Earlier results in patent publication US9394350B2, “HLA-A2 tumor associated antigen peptides and compositions” (OSE PHARMA INTERNATIONAL SA, priority 2003, dated 2016).

Columns and labels:
[1] = tested on: PBMC obtained from healthy donors and cancer patients; conditions: primary in vitro induction in healthy donors and recall responses in cancer patients; cited from earlier work
[2] = tested on: patients with metastatic melanoma; conditions: 1 mg peptide in Montanide ISA 51 with IL-2 therapy, versus historical IL-2 therapy alone; cited from earlier work

Row | Substance | specific CTL responses using PBMC [1] | clinical response rate [2]
1 | HER-2/neu.369: wild-type version of analog HER-2/neu.369V2V9 used in EP-2101 | induced specific CTL responses | –
2 | IL-2: Interleukin-2; IL-2 therapy alone, historical comparison | – | 15%
